Results reported in PMC10580319, “Quantitative Imaging of the Action of vCPP2319, an Antimicrobial Peptide from a Viral Scaffold, against Staphylococcus aureus Biofilms of a Clinical Isolate” (ACS Infectious Diseases, 2023).

Test system: human red blood cells (hRBCs)
Test: Hemolytic activity on human red blood cells
Assay type: cell-based
Details: 3.13 μM, 1 h incubation, 37 °C, 0.25% (v/v) hRBCs in PBS pH 7.4, absorbance at 415 nm
Protocol: Fresh human blood was obtained from healthy donors after written informed consent. To isolate human red blood cells (hRBCs), samples were centrifuged at 1000g for 10 min at 4 °C, washed three times, and resuspended in sterile phosphate buffered saline (PBS) (pH 7.4) to a final concentration of 0.25% (v/v). hRBCs suspensions were incubated with vCPP2319, ranging from 0.05 to 50 μM, for 4 or 24 h, with α-amylase from Bacillus sp. (EC 3.2.1.1; ∼380 U/mg; Cat no. 10069 from Sigma-Aldrich), ranging from 0.0078 to 0.5 mg/mL, for 1 h, or with the hemolytic peptide melittin (positive control), ranging from 0.05 to 50 μM, for 1 h at 37 °C, with gentle swirling, in a sterile 96-well microtiter round-bottomed polypropylene plate (Corning, NY, USA). After incubation, the plate was centrifuged at 1000g for 5 min at 4 °C, and supernatants were transferred to a sterile 96-well microtiter clear flat-bottomed polystyrene plate (Corning). Hemoglobin release from lysed cells was quantified by measuring the absorbance at 415 nm in an infinite M200 microplate reader (Tecan, Männedorf, Switzerland). […] Hemolytic activity (%) was determined using the following equation: [drawing 1] 1 where Abstreated is the absorbance of peptide-treated cells, Absuntreated is the absorbance of samples incubated with PBS, and AbsTriton is the absorbance of samples incubated with Triton X-100. […]

SMILES: CC[C@H](C)[C@H](NC(=O)CN)C(=O)NCC(=O)N[C@@H](C)C(=O)N[C@H](C(=O)N[C@@H](CC(C)C)C(=O)N[C@@H](CCCCN)C(=O)N[C@H](C(=O)N[C@@H](CC(C)C)C(=O)N[C@H](C(=O)N[C@H](C(=O)NCC(=O)N[C@@H](CC(C)C)C(=O)N1CCC[C@H]1C(=O)N[C@@H](C)C(=O)N[C@@H](CC(C)C)C(=O)N[C@H](C(=O)N[C@@H](CO)C(=O)N[C@@H](Cc1c[nH]c2ccccc12)C(=O)N[C@H](C(=O)N[C@@H](CCCCN)C(=O)N[C@@H](CCCNC(=N)N)C(=O)N[C@@H](CCCCN)C(=O)N[C@@H](CCCNC(=N)N)C(=O)N[C@@H](CCC(N)=O)C(=O)N[C@@H](CCC(N)=O)C(N)=O)[C@@H](C)CC)[C@@H](C)CC)[C@@H](C)O)[C@@H](C)O)C(C)C)C(C)C [melittin]
- hemolysis: ca. 100%
